# Antibody variant affinities, Ab-14 light chain, assay 1

Antigen: PDVDLGDISGINAS, a 14-residue peptide of the SARS-CoV-2 spike HR2 region.

Each scFv is VH, the linker GGGGSGGGGSGGGGS, VL, as in the parent Ab-14, and differs from it in the CDRs of the light chain only.
VH: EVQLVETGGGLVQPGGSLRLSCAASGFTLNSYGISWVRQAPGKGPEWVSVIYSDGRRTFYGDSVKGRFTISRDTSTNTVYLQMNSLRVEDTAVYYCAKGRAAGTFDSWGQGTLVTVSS
VL: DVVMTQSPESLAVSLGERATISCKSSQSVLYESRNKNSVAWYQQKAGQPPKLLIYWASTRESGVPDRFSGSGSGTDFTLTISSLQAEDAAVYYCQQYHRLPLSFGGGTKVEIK

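Phage display of a naive human antibody library on the peptide gave the parent. AAYL50 was designed without a model: most single CDR substitutions and a random sample of double and triple ones. AlphaSeq pools MATa yeast showing the antibodies with MATalpha yeast showing the peptide. Mating (16 h, 30 °C) was followed by selection of diploids and sequencing of their barcodes. Scores were corrected for input abundance and mapped to Kd with protein pairs of known affinity run in the same pool. Each pool was mated in three replicate cultures.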

Variants are written as CDR1, CDR2 and CDR3 of the light chain (limits as in the source). Parent: KSSQSVLYESRNKNSVA, WASTRES, QQYHRLPLS.
Affinities are written as log10 Kd with Kd in nM; a lower number is a better binder.
Replicates are averaged; those with no signal do not enter the mean.
Where no diploid with the target was found in any replicate, the entry reads "nd": below detection, most likely a poor binder, though not proof of it.
Entries are sorted by rising average, undetected variants last.

CDR-L1	CDR-L2	CDR-L3	mean log10 Kd (nM)	detected	empty controls
KISQSVLYESQNKNSVA	WASTRSS	QQYHRLPLS	-0.11	3/3	5/9
KSSQSVLYESVNKNSVA	WASTRES	YQYHRLPCS	0.51	3/3	2/9
KSMQSVLQESRNKYSVA	WASTRES	QQYHRLPLS	0.88	3/3	2/9
KSSQSVLYESRNKNSVA	CASTRLS	QQYHRLPLS	0.90	3/3	0/9
KSSQSVLYESRNKNSVA	WASTRES	QHYHCLPLT	0.94	3/3	2/9
KSSQSYLYESRNKNSVA	WASTREP	QFYHRLPLS	1.10	3/3	0/9
KSSQSVLYESRANNSVA	WASTRES	QQYHRLPLR	1.19	3/3	2/9
KSSQSVEYESRNKNSVA	YKSTRES	QQYHRLPLS	1.46	3/3	3/9
KSSQSVLYESRNKNSVA	WASTRVS	QQYHRLPLY	1.48	3/3	1/9
KSSQSFLYESRNKNSAA	WASTRES	QQYHRLPLV	1.49	3/3	0/9
KSGQSVLYESRNKNSVA	WASWRES	QQYSRLPLS	1.60	3/3	1/9
KGSQSVLYQSRNKNSVA	WAQTRES	QQYHRLPLS	1.82	3/3	2/9
KSSQSVLYESRNHNSVA	WASTRLA	QQYHRLPLS	1.91	3/3	2/9
KSPQSVLYESRNKNSVA	WAYTRES	QQYHRLPLS	2.18	3/3	4/9
KTSQSVLYEKRNKNSVA	WASTRES	AQYHRLPLS	2.19	3/3	8/9
KSSQSVLYESRNKRSVA	WASTRES	YHYHRLPLS	2.64	1/3	0/9
KSSQSVLYESRNKNSVA	WASTRED	QQSHRGPLS	2.94	2/3	3/9
KSSQSVLYESRNKNSVA	WASTRTS	QQYHFLQLS	2.99	1/3	0/9
KSHQSVLIESRNKNFVA	WASTRES	QQYHRLPLS	3.10	1/3	3/9
KSSQSVQYESRNRNSVA	WASTRES	QQYHRLPSS	3.19	1/3	0/9
KSSQSVLEESRNKNSVA	WASTRHS	FQYHRLPLS	3.27	3/3	1/9
KSYQMVLYESRNKNSVA	WASTRES	QQYHRLPLG	3.30	3/3	2/9
KPSQSTLYESRCKNSVA	WASTRES	QQYHRLPLS	3.34	1/3	0/9
KSSQSVLYESRNKNSVA	WASTREI	QQYHILPTS	3.50	3/3	2/9
KSSQSVLMESRNKNSVA	WAQTRES	QQYHRLPLS	3.67	3/3	1/9
KSSQSVNYESRNKNSVA	WASTREL	QQYHRLPLS	3.81	1/3	0/9
RSPQSVLYESRNKNSVA	MASTRES	QQYHRLPLS	3.88	1/3	0/9
KSSQSVRYESRNKNSVA	WASTRES	MQYSRLPLS	4.09	3/3	1/9
VSSQSVTYESRNKNSVA	WASTRES	RQYHRLPLS	4.21	2/3	0/9
KSSQSVLYECRNKNSVA	WASTRNS	QQYHRLPMS	4.22	1/3	0/9
KSSQSVLYESRNKNSVA	WASCRES	QQYHRLPAS	4.40	1/3	2/9
KSSQIVLYESRNKFSPA	WASTRES	QQYHRLPLS	4.44	1/3	1/9
KSSQSVLYESRNKNSVA	WANTRWC	QQYHRLPLS	4.52	1/3	2/9
KSSQSVLGESRNKNSVC	WASTRES	QQQHRLPLS	4.63	2/3	1/9
KSSQSNLYESRNKNSVA	QASTRES	QQYHRLPTS	5.60	1/3	1/9
KSGQSMLYESRNKNSVT	WASTRES	QQYHRLPLS	5.83	1/3	4/9
LSSQSVRYESRNKNSRA	WASTRES	QQYHRLPLS	nd	0/3	2/9
KWSQSVLYMSRNKNSVA	WASTRES	QQYHRLHLS	nd	0/3	0/9
KSSQNVLYESRNKNSVA	WASTPES	QQYHALPLS	nd	0/3	1/9
KSSQQVLYESRNKNSVA	WASRRES	QQAHRLPLS	nd	0/3	1/9
KSSQSVLYESRNKNSVP	WAMTRYS	QQYHRLPLS	nd	0/3	0/9
TSSQSVLYESRNKNSVA	WASTRES	QYYHRLPLE	nd	0/3	0/9
KSSQSVMYEERNKNSVA	WASTRES	QQYHALPLS	nd	0/3	0/9
VSSQSVLYESRNKNSRA	WAMTRES	QQYHRLPLS	nd	0/3	0/9
KSSQSVLYESRNKNQVA	WASTRES	QLYHRLPHS	nd	0/3	0/9
KSSESVLYESRNKNSVY	WASTRES	MQYHRLPLS	nd	0/3	0/9
KSSQSVLYECRNKNSVG	WISTRES	QQYHRLPLS	nd	0/3	1/9
KSSQSVLYESRNKNSVA	WASTYES	QQYHCLPRS	nd	0/3	0/9
KSKQSVLYESRNKNSVA	WASERES	QQYHFLPLS	nd	0/3	1/9

The closing 7 entries, repeated:

CDR-L1	CDR-L2	CDR-L3	mean log10 Kd (nM)	detected	empty controls
KSSQSVMYEERNKNSVA	WASTRES	QQYHALPLS	nd	0/3	0/9
VSSQSVLYESRNKNSRA	WAMTRES	QQYHRLPLS	nd	0/3	0/9
KSSQSVLYESRNKNQVA	WASTRES	QLYHRLPHS	nd	0/3	0/9
KSSESVLYESRNKNSVY	WASTRES	MQYHRLPLS	nd	0/3	0/9
KSSQSVLYECRNKNSVG	WISTRES	QQYHRLPLS	nd	0/3	1/9
KSSQSVLYESRNKNSVA	WASTYES	QQYHCLPRS	nd	0/3	0/9
KSKQSVLYESRNKNSVA	WASERES	QQYHFLPLS	nd	0/3	1/9

Background: pairings of library AAYL50 with three empty control strains gave a value in 18% of cases (median 4.19, 5th percentile 2.99). Values in that range, when seen in few replicates, are hard to tell from nonspecific mating. Also given: how often the same scFv was detected with the empty control strains.
Parent in this assay: reference entry 0.65, copy in this library 1.68.

The measurements come from Engelhart et al. 2022 (doi:10.1038/s41597-022-01779-4) through the FLAb antibody collection.